The target of this assay is GST-IQGAP1 C794 (UniProt P46940). As to the kind of experiment: pull-down; active GTPase pull-down as a7, but HEK-293T cells serum-starved for 24 h; values against the serum-stimulated condition.

For the substance “Flag-RAC1^T17N (from UniProt P63000 1-192) (natural protein)”, the percent decrease of binding strength under serum starvation came out at 33.6%.

For the origin of these results see paper PMC12702776, “New insights into the classification of the RAC1 P29S hotspot mutation in melanoma as an oncogene” (Cancer Gene Therapy, 2025).
